Data taken from US20260049071A1, “PROTEIN TYROSINE KINASE INHIBITOR AND MEDICAL USE THEREOF” (BEYANG THERAPEUTICS CO., LTD., priority 2022, published 2026).

The chains behind the UniProt entries cited, without tags or fusion partners. Residues count along the entry.
UniProt P00533, 25-1210 limits assumed: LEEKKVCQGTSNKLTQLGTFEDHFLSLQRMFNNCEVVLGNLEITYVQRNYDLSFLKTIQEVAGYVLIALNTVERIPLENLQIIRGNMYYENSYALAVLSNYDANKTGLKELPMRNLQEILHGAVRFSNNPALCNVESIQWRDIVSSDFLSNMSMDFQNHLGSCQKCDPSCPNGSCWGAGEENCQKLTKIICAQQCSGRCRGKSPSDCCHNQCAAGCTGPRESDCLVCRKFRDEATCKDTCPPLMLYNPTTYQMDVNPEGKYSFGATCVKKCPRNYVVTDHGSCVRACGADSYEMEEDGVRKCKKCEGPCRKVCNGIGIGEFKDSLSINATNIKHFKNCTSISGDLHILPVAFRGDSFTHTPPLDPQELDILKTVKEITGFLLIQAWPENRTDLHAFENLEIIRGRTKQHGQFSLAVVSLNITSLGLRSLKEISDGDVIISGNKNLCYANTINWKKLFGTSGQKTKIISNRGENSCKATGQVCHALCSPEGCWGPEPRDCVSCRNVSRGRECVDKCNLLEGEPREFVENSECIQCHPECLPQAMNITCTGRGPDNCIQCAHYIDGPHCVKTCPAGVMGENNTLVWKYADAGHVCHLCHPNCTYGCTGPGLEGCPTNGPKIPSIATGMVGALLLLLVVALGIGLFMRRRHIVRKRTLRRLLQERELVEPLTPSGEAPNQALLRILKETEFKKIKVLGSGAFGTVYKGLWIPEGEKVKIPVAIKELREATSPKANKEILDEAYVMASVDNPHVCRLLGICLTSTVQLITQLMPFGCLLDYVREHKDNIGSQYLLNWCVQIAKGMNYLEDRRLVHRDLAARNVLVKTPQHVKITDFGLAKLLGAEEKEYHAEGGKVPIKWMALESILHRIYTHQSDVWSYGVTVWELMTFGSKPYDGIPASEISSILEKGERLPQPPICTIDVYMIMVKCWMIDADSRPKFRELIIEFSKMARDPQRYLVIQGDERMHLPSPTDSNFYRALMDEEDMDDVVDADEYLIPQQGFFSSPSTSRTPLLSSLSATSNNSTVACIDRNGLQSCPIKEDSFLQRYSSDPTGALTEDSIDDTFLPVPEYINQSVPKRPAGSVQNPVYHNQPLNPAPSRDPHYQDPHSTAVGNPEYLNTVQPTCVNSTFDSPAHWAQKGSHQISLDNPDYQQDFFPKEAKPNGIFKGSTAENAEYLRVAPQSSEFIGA
UniProt P35968, 790-1356 limits assumed: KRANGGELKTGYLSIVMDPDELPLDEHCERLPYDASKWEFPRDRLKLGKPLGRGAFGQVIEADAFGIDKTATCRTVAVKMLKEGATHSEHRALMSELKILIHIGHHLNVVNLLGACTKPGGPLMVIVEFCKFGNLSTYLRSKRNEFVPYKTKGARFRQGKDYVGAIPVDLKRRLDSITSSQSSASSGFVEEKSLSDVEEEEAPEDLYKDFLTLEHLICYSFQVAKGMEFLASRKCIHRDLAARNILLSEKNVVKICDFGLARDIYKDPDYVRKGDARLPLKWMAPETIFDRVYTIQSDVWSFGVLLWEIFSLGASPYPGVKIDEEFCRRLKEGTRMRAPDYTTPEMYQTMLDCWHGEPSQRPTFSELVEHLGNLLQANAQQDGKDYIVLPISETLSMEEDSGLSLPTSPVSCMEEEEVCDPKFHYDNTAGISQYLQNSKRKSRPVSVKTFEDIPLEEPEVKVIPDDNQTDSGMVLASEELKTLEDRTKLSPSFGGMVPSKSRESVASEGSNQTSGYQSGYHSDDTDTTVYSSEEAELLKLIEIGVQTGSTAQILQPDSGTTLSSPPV
UniProt P35968, 20-1356 limits assumed: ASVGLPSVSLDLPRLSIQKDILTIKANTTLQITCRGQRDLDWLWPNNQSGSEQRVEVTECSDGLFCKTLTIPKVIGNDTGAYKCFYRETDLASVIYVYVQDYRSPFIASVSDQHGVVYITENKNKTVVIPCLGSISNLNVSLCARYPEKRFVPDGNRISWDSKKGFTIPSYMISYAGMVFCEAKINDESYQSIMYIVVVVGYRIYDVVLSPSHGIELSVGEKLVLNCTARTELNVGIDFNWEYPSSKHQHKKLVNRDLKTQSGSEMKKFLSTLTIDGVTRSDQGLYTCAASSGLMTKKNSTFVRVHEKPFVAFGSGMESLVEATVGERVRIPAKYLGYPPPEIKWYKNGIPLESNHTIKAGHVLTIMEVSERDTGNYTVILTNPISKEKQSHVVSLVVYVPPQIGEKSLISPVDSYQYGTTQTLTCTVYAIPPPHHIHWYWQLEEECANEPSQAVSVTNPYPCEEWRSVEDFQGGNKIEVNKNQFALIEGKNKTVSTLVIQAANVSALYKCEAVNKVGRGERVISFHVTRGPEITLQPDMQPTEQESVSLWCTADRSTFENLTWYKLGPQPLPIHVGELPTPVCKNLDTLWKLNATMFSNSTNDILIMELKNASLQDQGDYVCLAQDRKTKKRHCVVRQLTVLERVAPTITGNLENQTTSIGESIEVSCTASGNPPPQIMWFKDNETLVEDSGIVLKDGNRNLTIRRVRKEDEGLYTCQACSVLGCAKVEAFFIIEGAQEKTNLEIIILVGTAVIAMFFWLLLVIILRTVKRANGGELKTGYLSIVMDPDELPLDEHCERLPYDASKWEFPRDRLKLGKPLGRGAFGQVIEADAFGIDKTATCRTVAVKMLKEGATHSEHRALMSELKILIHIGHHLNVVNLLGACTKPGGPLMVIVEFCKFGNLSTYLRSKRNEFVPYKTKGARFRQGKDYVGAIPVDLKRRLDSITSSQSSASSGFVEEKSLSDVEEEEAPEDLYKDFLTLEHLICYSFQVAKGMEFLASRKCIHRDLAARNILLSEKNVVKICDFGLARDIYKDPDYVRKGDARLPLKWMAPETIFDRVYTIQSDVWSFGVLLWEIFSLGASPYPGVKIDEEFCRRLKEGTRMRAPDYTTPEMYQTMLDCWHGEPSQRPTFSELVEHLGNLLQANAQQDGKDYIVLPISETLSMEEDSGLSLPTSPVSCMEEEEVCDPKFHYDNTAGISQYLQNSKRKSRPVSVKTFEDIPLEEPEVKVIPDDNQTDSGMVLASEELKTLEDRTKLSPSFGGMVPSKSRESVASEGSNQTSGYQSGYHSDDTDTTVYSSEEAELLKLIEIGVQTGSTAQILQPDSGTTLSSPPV
UniProt P17948, 27-1338 limits assumed: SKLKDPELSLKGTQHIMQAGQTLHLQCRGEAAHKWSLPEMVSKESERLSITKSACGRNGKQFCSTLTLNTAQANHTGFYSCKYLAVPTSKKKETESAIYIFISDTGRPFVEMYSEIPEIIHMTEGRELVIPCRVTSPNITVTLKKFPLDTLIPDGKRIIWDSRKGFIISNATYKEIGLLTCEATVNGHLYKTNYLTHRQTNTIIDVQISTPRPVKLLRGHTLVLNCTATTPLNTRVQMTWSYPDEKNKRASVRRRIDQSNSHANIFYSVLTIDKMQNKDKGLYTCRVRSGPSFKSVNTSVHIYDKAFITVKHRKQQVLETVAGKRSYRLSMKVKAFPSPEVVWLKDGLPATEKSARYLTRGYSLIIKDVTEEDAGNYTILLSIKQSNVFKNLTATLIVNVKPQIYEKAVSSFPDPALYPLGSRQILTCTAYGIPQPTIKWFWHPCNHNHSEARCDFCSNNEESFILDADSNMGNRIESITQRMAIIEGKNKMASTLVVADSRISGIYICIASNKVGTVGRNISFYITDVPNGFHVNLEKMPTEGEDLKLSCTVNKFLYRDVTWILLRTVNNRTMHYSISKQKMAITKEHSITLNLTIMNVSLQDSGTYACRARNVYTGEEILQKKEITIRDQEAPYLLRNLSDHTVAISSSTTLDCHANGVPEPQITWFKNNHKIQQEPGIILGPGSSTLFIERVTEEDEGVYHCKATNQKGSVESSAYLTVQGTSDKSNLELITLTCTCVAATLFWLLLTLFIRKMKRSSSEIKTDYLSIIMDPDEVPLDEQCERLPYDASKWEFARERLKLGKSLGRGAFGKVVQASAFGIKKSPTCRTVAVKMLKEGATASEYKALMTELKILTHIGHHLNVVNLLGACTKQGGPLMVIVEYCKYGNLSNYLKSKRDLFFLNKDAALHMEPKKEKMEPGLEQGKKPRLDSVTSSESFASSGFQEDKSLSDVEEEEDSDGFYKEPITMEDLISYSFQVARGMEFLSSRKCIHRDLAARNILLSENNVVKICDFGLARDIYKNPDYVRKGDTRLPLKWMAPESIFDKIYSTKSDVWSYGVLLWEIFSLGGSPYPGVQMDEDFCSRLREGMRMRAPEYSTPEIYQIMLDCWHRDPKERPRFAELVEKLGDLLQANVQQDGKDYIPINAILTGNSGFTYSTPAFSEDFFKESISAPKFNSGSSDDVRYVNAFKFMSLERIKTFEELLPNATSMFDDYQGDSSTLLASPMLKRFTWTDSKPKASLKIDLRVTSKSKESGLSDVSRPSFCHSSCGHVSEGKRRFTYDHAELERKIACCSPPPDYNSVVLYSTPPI
UniProt P35916, 25-1363 limits assumed: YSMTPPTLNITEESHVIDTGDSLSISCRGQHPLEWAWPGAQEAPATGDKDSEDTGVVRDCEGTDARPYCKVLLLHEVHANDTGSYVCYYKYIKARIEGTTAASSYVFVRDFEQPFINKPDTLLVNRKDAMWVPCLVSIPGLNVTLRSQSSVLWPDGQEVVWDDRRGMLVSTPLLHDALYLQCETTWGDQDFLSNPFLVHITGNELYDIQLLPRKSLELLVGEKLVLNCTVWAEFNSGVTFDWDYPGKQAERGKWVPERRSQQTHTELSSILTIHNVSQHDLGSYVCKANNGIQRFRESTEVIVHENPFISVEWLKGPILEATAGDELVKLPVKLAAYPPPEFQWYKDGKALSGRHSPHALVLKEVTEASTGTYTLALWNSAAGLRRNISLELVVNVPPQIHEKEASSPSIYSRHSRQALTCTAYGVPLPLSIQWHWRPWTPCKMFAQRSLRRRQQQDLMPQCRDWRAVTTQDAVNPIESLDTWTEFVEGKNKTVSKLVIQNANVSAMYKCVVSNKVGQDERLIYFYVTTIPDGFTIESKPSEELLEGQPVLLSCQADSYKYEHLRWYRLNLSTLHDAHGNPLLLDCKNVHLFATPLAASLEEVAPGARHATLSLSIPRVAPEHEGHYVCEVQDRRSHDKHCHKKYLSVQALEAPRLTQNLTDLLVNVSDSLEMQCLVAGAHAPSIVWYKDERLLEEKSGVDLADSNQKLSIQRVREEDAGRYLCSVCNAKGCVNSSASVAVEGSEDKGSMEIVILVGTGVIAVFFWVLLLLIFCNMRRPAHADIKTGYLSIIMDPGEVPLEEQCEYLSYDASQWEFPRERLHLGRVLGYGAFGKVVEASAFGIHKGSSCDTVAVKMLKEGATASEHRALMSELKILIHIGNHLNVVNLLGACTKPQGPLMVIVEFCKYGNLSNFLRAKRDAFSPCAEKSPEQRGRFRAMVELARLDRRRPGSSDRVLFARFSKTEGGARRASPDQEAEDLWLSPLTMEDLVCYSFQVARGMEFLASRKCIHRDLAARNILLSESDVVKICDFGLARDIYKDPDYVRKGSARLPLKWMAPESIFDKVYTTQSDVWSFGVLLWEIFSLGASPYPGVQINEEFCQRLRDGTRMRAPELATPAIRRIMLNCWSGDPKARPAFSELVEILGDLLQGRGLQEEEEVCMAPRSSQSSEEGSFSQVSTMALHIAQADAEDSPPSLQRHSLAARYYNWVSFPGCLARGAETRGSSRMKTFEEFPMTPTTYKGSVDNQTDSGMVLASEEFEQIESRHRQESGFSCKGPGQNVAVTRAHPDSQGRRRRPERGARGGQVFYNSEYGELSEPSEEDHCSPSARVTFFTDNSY

Tests used:
[1] = target: EGFR (Homo sapiens (Human), UniProt P00533); assay: Kinase inhibition, Mobility Shift Assay (EGFR); conditions: read-out: IC50 (nM) for EGFR
[2] = Binding capacity of compounds to melanin; conditions: 1 mg/mL melanin suspension in PBS pH 7.4, 2 μM compound, 2 h at 37° C.
[3] = target: KDR (VEGFR2) (Homo sapiens (Human), UniProt P35968); assay: Kinase inhibition, Mobility Shift Assay (VEGFR2); conditions: read-out: IC50 (nM) for VEGFR2
[4] = target: VEGFR2 autophosphorylation (pVEGFR2) in HUVEC cells (Homo sapiens (Human), UniProt P35968); assay: Inhibition of VEGF-induced VEGFR2 autophosphorylation in HUVEC cells (ELISA); conditions: read-out: IC50 (nM) for pVEGFR2, 50 ng/ml human VEGF, compound 1 h
[5] = Thermodynamic solubility assay; assay type: physicochemical; conditions: room temperature, shaking 8 h, buffers pH 2.0, 6.5, 7.4 in method, pH of the tabulated value not given
[6] = target: FLT1 (VEGFR1) (Homo sapiens (Human), UniProt P17948); assay: Kinase inhibition, Mobility Shift Assay (VEGFR1); conditions: read-out: IC50 (nM) for VEGFR1
[7] = target: FLT4 (VEGFR3) (Homo sapiens (Human), UniProt P35916); assay: Kinase inhibition, Mobility Shift Assay (VEGFR3); conditions: read-out: IC50 (nM) for VEGFR3

Structure (SMILES): CCNC(=O)c1cc(F)ccc1Sc1ccc2c(/C=C/c3ccc(CN(CC)CC)cn3)n[nH]c2c1
IC50 [1]: 6000 to 60000 nM
Fu % (percentage of free drug, not bound to melanin) [2]: C (C indicates above 5%)
IC50 [3]: 1 to 10 nM
IC50 [4]: < 1 nM
Solubility [5]: 0.546 mg/mL (≈ 1080 µM)

Structure (SMILES): CNC(=O)c1ccccc1Sc1ccc2c(cnn2-c2ccc(OCCN3CCCC3)cn2)c1
IC50 [6]: > 100 nM
IC50 [7]: > 100 nM
IC50 [1]: > 60000 nM
IC50 [3]: > 100 nM

Structure (SMILES): CCN(CC)CCc1ccc(/C=C/c2n[nH]c3cc(Sc4ccccc4C(=O)NC4CC4)ccc23)nc1
IC50 [1]: 6000 to 60000 nM
Fu % (percentage of free drug, not bound to melanin) [2]: B (B indicates from 1% to 5%)
IC50 [3]: < 1 nM
IC50 [4]: < 1 nM

IC50 [1]: 6000 to 60000 nM
IC50 [3]: < 1 nM
Structure (SMILES): CCNC(=O)c1ccccc1Sc1ccc2c(/C=C/c3cnn(CCCN4CCCC4)c3)n[nH]c2c1

IC50 [1]: 6000 to 60000 nM
IC50 [3]: 1 to 10 nM
Structure (SMILES): CCN(CC)Cc1ccc(/C=C/c2n[nH]c3cc(Sc4c(F)cccc4C(=O)NC4CC4)ccc23)nc1

Structure (SMILES): O=C(O)c1ccccc1Sc1ccn2c(/C=C/c3ccccn3)ncc2c1
IC50 [6]: > 100 nM
IC50 [7]: > 100 nM
IC50 [1]: < 600 nM
Fu % (percentage of free drug, not bound to melanin) [2]: C (C indicates above 5%)
IC50 [3]: > 100 nM

≈ marks a conversion by molar mass, not a printed value. Each block holds one molecule with its values, some of them ahead of it.
